Source: PubChem (ICCB-Longwood Screening Facility, Harvard Medical School)
This excerpt belongs to a sample that is enriched for hits.
GIV-Gai inh: inhibitors of GIV GBA-motif binding to rat Galpha-i3; P08753; Galpha-i3/FITC-GIV peptide fluorescence polarization, 90 min; stronger effect = lower value; scaled: aluminum fluoride 0%, vehicle 100%; percent of control (FP), % (no concentration beside the values); actives 0.42% (n = 210,000); AID 1224905;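 active means replicate mean at 85% of control or lower, very high polarization wells dropped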;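 further: wells of about 15 µL received 100 nL stock; the first replicate is given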
GIV-Gai FP conf: confirmation of inhibitors of GIV binding to rat Galpha-i3. shares compounds with GIV-Gai inh. FITC-GIV peptide binding to Galphai3, fluorescence polarization; stronger effect = lower value. fluorescence polarization, mP at 100 µM. actives 38% (n = 580);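 active = inhibition score of 15 or more, meaning 100 minus mean polarization as percent of control over three replicates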
GIV Gai AS conf: confirmation of inhibitors of GIV binding to human Galpha-i3. AlphaScreen counts at 100 µM. AlphaScreen Galphai3-GIV binding, purified proteins, 90 min; stronger effect = lower value. actives 39% (n = 580). shares compounds with GIV-Gai inh. AID 1259351;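 active = inhibition score at or above a set limit, where the score is 100 minus the three-replicate mean percent of control signal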
* marks the source's active call; other numbers are inactive results.

SMILES | GIV-Gai inh | others
CC1CC(C)CN(c2cc(NCCO)c3c4c(onc24)-c2ccccc2C3=O)C1 (stereo not given) | 118
CC(C)CNc1cc(Cl)c2noc3c2c1C(=O)c1ccccc1-3 | -55*
CCOC(=O)C1CCN(c2cc(NCC(C)C)c3c4c(onc24)-c2ccccc2C3=O)CC1 | 247
CC(C)CNc1cc(NCCO)c2c3c(onc13)-c1ccccc1C2=O | -54*
CCNc1cc(N(C)CCO)c2noc3c2c1C(=O)c1ccccc1-3 | 282
Cc1ccc(Sc2cc(Cl)c3noc4c3c2C(=O)c2ccccc2-4)cc1 | 103
CCCCNc1cc(NC2CCCCC2)c2c3c(onc13)-c1ccccc1C2=O | 159
Cc1nc(N2CCN(C)CC2)c2c(C)c(C(=O)NCCN(C)C)sc2n1 | 107
O=C(NC1CC1)c1cc(-n2cnnc2)ccc1Cl | 105
CCOc1cccc(C(=O)Nc2cc(-c3nc4ccccc4s3)ccc2Cl)c1 | 95
CCOC(=O)c1c(-c2ccc(OC)cc2)noc1C | 111
COc1ccc(-n2nnnc2C2(N3CCCC3)CCCC2)cc1 | 104
Cc1ccc(Sc2cc(Sc3ccc(C)cc3)c3noc4c3c2C(=O)c2ccccc2-4)cc1 | 103
Cc1nn(CCCN)cc1Cl | 106
NS(=O)(=O)c1ccc(Nc2cc(-c3ccccc3)ncn2)cc1 | 103
COc1cccc(-c2cc(=O)n3c4ccccc4n(CC(=O)Nc4ccc(C)cc4)c3n2)c1 | 97
O=C(O)CN1C(=O)/C(=C2\SC(N3CCOCC3)=NC2=O)c2cc(Br)ccc21 | 104
O=C(O)c1ccccc1-c1ccccc1C(=O)O | 110
O=C(O)c1ccccc1C1=Nc2ccc(O)cc2Oc2cc(O)ccc21 | -91*
CN(C)C(=O)c1ccccc1-c1ccccc1C(=O)O | 100

For reference, part of the list above.
SMILES | GIV-Gai inh | others
O=C(O)CN1C(=O)/C(=C2\SC(N3CCOCC3)=NC2=O)c2cc(Br)ccc21 | 104
O=C(O)c1ccccc1-c1ccccc1C(=O)O | 110
O=C(O)c1ccccc1C1=Nc2ccc(O)cc2Oc2cc(O)ccc21 | -91*
CN(C)C(=O)c1ccccc1-c1ccccc1C(=O)O | 100

Later entries
SMILES | GIV-Gai inh | others
COc1ccc(CCNC(=O)C2CCCN(c3nc4ccc(Br)cc4[nH]3)C2)cc1OC (stereo not given) | 100
CCOc1ccc(C2c3[nH]c4ccccc4c3CCN2C(=O)c2cccc(Br)c2)cc1 (stereo not given) | 109
O=C(C1CC1)N1CCC(c2nc(-c3ccc(F)cc3)no2)CC1 | 101
CN(Cc1ccccc1)C(=O)C1CCN(S(=O)(=O)c2ccc3c(c2)NC(=O)CS3)CC1 | 100
O=C(O)c1ccc2c3c(cccc13)CC2 | 100
O=C(O)c1cccc2cccc(C(=O)O)c12 | 98
Nc1ccc(C(=O)O)c2c(C(=O)O)cccc12 | 72*
c1ccc(C2C3=C(CCCC3)Nc3nnnn32)cc1 (stereo not given) | 98
COc1cccc(/C=C2\N=C(SC)SC2=O)c1 | 111
CCN(CC)c1ccc(/C=C2\N=C(SC)SC2=O)cc1 | -78*
CSC1=N/C(=C\c2ccccc2)C(=O)S1 | 107
O=C(CSc1nc2ccccc2nc1Cc1ccccc1)Nc1nccs1 | 98
O=c1cc(CN2CCCc3ccccc32)nc2sccn12 | -43*
CCCc1nn2c(=O)cc(CN3CCCc4ccccc43)nc2s1 | 159
O=c1cc(CSc2ccccc2)nc2sccn12 | 106
O=C(NC1CCN(Cc2ccccc2)CC1)c1cc(-c2ccccc2)c(N2CCOCC2)s1 | 101
O=C(c1ccco1)N1N=C(c2ccccc2)CC1c1cc2cc3c(cc2nc1Cl)OCCO3 (stereo not given) | 99
CC(=O)N1N=C(c2ccccc2)CC1c1cc2cc3c(cc2nc1Cl)OCO3 (stereo not given) | 105
CCS(=O)(=O)N1N=C(c2ccccc2)CC1c1cc2cc3c(cc2nc1Cl)OCCO3 (stereo not given) | -53*
COc1ccccc1NC(=O)CCn1c(C(F)(F)F)nc2cc(S(=O)(=O)N(C)C)ccc21 | 104
S=c1sc2ccccc2n1CN1CCOCC1 | 105
CC1(C)CN(CC(=O)N2CCCC2)c2ccc(S(=O)(=O)NC3CC3)cc21 | 99
CC(=O)n1c2c(c3ccccc31)OC(N)=C(C#N)C2c1cccc(F)c1 (stereo not given) | 109
CCN(CC)c1ccc2c(c1)OC(N)=C(C#N)C2c1cccc(F)c1 (stereo not given) | 108 | GIV-Gai FP conf=115;GIV Gai AS conf=21637
CCOC(=O)C1=C(C)OC(N)=C(C#N)C1c1cc(F)ccc1F (stereo not given) | 99
CCc1ccc(/C=N\N2CCN(c3ccccc3)CC2)cc1 | 101
C/C=C(\C)CN1CCN(c2ccccc2)CC1 | 108
C/C(=N/N1CCN(c2ccccc2)CC1)c1ccccc1 | 85* | GIV-Gai FP conf=79;GIV Gai AS conf=33751
CCOC(=O)CSc1nc(Nc2ccc(F)cc2)c2ccccc2n1 | 105
Cc1nn(-c2ccc3nncn3n2)c(C)c1CCC(=O)Nc1ccc(F)c(Cl)c1 | 89 | GIV-Gai FP conf=78;GIV Gai AS conf=27312
Cc1nn(-c2ccc3nncn3n2)c(C)c1CCC(=O)Nc1ccc(OC(F)(F)F)cc1 | 110
CC(=O)Nc1ccc(NC(=O)CCc2c(C)nn(-c3ccc4nncn4n3)c2C)cc1 | 103
CCOC(=O)c1ccccc1NC(=O)Cn1cnc2onc(C)c2c1=O | 100
Cc1ccccc1C(=O)c1cccn1CC(=O)NC1CCCCCC1 | 106
COc1cccc(NS(=O)(=O)c2cc(C(=O)N3CC(C)CC(C)C3)ccc2NCCc2ccc(OC)c(OC)c2)c1 (stereo not given) | 104
Cc1ccc2nc(S/C=C/C(=O)c3ccccc3)[nH]c2c1 | 89 | GIV-Gai FP conf=62;GIV Gai AS conf=38936
Cc1ccc2nc(SC(C)C(=O)O)[nH]c2c1 (stereo not given) | 102
O=C(/C=C/Sc1nc2cc(Cl)c(F)cc2[nH]1)c1ccccc1 | 104
CC(=O)N/C(=C/c1ccc(Br)cc1)C(=O)O | 112
COc1ccc2cc3c(nc2c1)N(C(=O)C(C)(C)C)CC3 | 112
CC1(C)CC(=O)C(C2(O)C(=O)c3ccccc3C2=O)C(=O)C1 | 66* | GIV-Gai FP conf=58*;GIV Gai AS conf=44260
CC1(C)CC(=O)C2=C(C1)OC1=C(C(=O)CC(C)(C)C1)C2c1ccc(-c2ccccc2C(=O)O)o1 | 107
Cc1ccc(C2(O)C(=O)c3ccccc3C2=O)c(O)c1C | 108
NC(=O)CN1C(=O)Cc2ccccc2C1=O | 63* | GIV-Gai FP conf=58*;GIV Gai AS conf=12845*
O=C1Cc2ccccc2C(=O)N1Cc1ccccc1 | 97
NC(=O)CN1C(=O)CCSc2ccccc21 | 102
CC(=O)N1CCc2cc(S(=O)(=O)CCC(=O)N(C)c3ccc(C)cc3)ccc21 | 100
CC1=C(c2ccc(F)cc2)S(=O)(=O)N(CC(=O)NCc2ccc(C)cc2)C1=O | 98
O=C(c1cc(-c2ccccc2)n[nH]1)N1CCN(c2ccccc2)CC1 | 101
COc1ccc(C2=C(O)C(=O)N(c3ccc(Cl)cc3)C2c2ccccc2)cc1 (stereo not given) | 106

Random excerpt: 4 compounds from above
SMILES | GIV-Gai inh | others
O=C(c1cc(-c2ccccc2)n[nH]1)N1CCN(c2ccccc2)CC1 | 101
Cc1ccc(C2(O)C(=O)c3ccccc3C2=O)c(O)c1C | 108
CC1(C)CC(=O)C(C2(O)C(=O)c3ccccc3C2=O)C(=O)C1 | 66* | GIV-Gai FP conf=58*;GIV Gai AS conf=44260
COc1ccc(C2=C(O)C(=O)N(c3ccc(Cl)cc3)C2c2ccccc2)cc1 (stereo not given) | 106

(continued)
SMILES | GIV-Gai inh | others
COc1ccc(C2N(c3ccccc3)OC(=O)N2c2ccccc2)cc1 (stereo not given) | 103
COc1ccc(C2=CC(=O)N(c3ccccc3)C(c3ccccc3)O2)cc1 (stereo not given) | 90 | GIV-Gai FP conf=65;GIV Gai AS conf=40592
Cc1cc(NC(=O)c2cc(-c3cccc(O)c3)on2)no1 | 102
O=S(=O)(c1ccc2[nH]c3nc4nc(-c5ccc(Br)cc5)cn4nc3c2c1)N1CCCC1 | 129
CCc1ccc(N=C2NC(=O)/C(=C/c3cc(C)n(CC)c3C)S2)cc1 | 119
Cc1cc(/C=C2\SC(=Nc3ccccc3)NC2=O)c(C)n1-c1ccccc1 | 90 | GIV-Gai FP conf=71;GIV Gai AS conf=42209
